{"sequences": {"note": "The chains behind the UniProt entries cited, without tags or fusion partners. Where a name states a change or a piece, a line headed by the entry shows the natural chain unless it says otherwise.", "UniProt P41145": "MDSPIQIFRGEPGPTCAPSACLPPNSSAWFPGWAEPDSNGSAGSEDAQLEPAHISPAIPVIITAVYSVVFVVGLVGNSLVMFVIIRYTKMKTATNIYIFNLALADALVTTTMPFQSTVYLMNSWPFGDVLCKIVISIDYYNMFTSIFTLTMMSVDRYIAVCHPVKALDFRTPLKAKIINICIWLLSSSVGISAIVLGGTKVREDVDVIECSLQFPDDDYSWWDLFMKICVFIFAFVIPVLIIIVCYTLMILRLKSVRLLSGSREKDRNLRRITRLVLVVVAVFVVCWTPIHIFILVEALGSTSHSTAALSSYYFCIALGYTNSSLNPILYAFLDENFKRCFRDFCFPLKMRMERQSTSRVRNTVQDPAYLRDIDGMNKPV"}, "source": "paper PMC3880591", "about": "(Journal of medicinal chemistry, 2013)", "key": {"Male Sprague Dawley rats": {"test_system": "Male Sprague Dawley rats", "test": "ICSS, potentiation of brain stimulation reward by cocaine", "assay_type": "in vivo, rat", "conditions": "cocaine 5.0 mg/kg i.p., 1 hr post-cocaine"}, "human KOR": {"target": "human KOR (Homo sapiens, UniProt P41145)", "conditions": "ratio of Ki values; cited from earlier work"}}, "data": [{"molecule": "COC(=O)[C@H]1[C@@H](OC(=O)c2ccccc2)C[C@@H]2CC[C@H]1N2C", "note": "[Cocaine]", "values": [{"measurement": "Effect on ICSS thresholds", "setting": "Male Sprague Dawley rats", "result": "decreased ICSS thresholds"}]}, {"molecule": "CCNc1nc2cc3c(cc2s1)C[C@@H]1[C@@H]2CCCC[C@]32CCN1CC1CC1", "note": "[Compound 1c]", "values": [{"measurement": "Selectivity δ/κ", "setting": "human KOR", "result": 290}]}]}
